Laboratory results: patent publication EP0328389A2, “Compostions for treating intracranial tumors” (MATRIX PHARMACEUTICAL INC., priority 1988, dated 1989)

System: KHT brain tumor
Test: Histopathological evaluation of KHT brain tumor response to intracerebrally implanted treatment
Type: in vivo, C3H mice
Conditions: 0.2 mg/kg i.c., surviving mice sacrificed day 16 or 18
Method: The use of vinblastine (VBL) and vincristine (VC) alone and in combination with a protein carrier on the growth of experimental murine tumors grown intracranially was investigated. Halothane-anesthesized C3H mice 12-16 weeks in age were injected intracranially (i.c.) into the right frontal lobe with 10 µl total volume of Hank's balanced salt solution containing 5 X 10⁴ KHT fibrosarcoma cells through a burr hole made in the exposed cranium with a compressed air-driven drill. Following injection, the cranium was sealed with bone wax, and the overlying skin was sutured. Five days post tumor implantation the mice were randomly divided into the following groups based on the treatment solution administered intracranially: saline controls vinblastine (0.2 mg/kg) vinblastine + epinephrine (0.1 mg/kg) vinblastine + matrix (1:1 bovine collagen 36 mg/ml) vinblastine + epinephrine (0.1 mg/kg) + matrix (1:1 bovine collagen 36 mg/ml)
The test solution with and without matrix and the saline control were delivered intracranially (i.c.) in an injection volume of 10 µl through the same burr hole used for tumor cell inoculation. All mice were observed daily.
Surviving mice from each group were sacrificed on day 16 or 18 following tumor implantation. Cross-sections of whole mouse brains were examined histopathologically for the presence of tumor involvement in the brain.

CC[C@]1(O)C[C@@H]2CN(CCc3c([nH]c4ccccc34)[C@@](C(=O)OC)(c3cc4c(cc3OC)N(C)[C@H]3[C@@](O)(C(=O)OC)[C@H](OC(C)=O)[C@]5(CC)C=CCN6CC[C@]43[C@@H]65)C2)C1 [Vinblastine, vinblastine]
Number of Mice With Varying Tumor Size: NED (NED = No evidence of disease, no tumor observed): 3 | Number of Mice With Varying Tumor Size: Large (large tumor = 30% or more of the cross-sectional area of the microscopic field): 2 | %NED (share of mice with no evidence of disease): 25% | Number of Mice With Varying Tumor Size: Small (small tumor = 5-30% of the cross-sectional area): 7
